Earlier results in patent publication US20250152566A1, “USE OF AMINOPYRIDINE, IN PARTICULAR AMIFAMPRIDINE, FOR THE TREATMENT OF A VIRALLY-ASSOCIATED FATIGUE” (priority 2023, published 2025).

Test system: LEMS patients
Conditions: everyday clinical practice, up to a daily maximum dose of 60 mg; cited from earlier work

Aminopyridine
liver and kidney function: no impairments of the liver and kidney function
